Test results: paper PMC4724290 (Synapse (New York, N.Y.), 2015)
Several values for one entry are separate records, joined by “and”; a condition that tells them apart may be missing. Equal entries are not always repeated.

Chains of the proteins cited; added tags and fusions are not shown.
UniProt O55242, whole entry: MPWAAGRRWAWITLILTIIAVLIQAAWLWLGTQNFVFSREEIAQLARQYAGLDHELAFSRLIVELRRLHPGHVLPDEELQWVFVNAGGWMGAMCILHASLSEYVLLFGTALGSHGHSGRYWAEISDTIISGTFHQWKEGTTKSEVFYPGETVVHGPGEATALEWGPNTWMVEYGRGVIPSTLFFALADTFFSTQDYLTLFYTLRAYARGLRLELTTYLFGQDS

Tests used:
[1] = biological target: σ1 receptors (Mus musculus, UniProt O55242); experiment: In vitro σ1 receptor binding, [^3H]; set-up: species or system CD-1 mouse
[2] = biological target: T1, σ2 receptors (Mus musculus, UniProt Q8VD00); experiment: In vitro σ2 receptor binding, [^3H]DTG/; set-up: species or system CD-1 mouse
T1 sequence (Q8VD00 1-176): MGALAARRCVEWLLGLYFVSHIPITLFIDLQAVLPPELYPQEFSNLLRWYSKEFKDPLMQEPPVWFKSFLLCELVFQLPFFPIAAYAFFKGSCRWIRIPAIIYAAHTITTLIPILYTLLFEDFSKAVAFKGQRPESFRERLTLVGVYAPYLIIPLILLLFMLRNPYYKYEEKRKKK

Row | Structure (SMILES) | IC50 [1] | Ki [1] | IC50 [2] | Ki [2] | Kd ([1]; read-out: Equilibrium dissociation constant (Kd), σ1 receptors, saturation binding, 37 °C, 180 min)
1 | CC(C)=CCN1CC[C@]2(C)c3cc(O)ccc3C[C@H]1[C@H]2C [(+)-Pentazocine, (+)-pentazocine] | 7.88 ± 0.53 nM | 5.1 ± 0.34 nM | 2280 ± 167 nM | 2060 ± 151 nM | –
2 | CC(C)=CCN1CC[C@]2(C)c3cc(O)ccc3C[C@H]1[C@H]2C [[^3H](+)-Pentazocine] | – | – | – | – | 5.51 nM and 5.5 nM
